The values that follow come from patent US10221173B2, “Chemical compounds” (AstraZeneca AB, priority 2017, dated 2019).

Protein sequences, listed by entry. Tags and fused reporters are not part of them. Lines headed by an entry give the natural chain unless they say otherwise; changes in a name come on top. Residues count along the entry.
UniProt P03372, whole entry: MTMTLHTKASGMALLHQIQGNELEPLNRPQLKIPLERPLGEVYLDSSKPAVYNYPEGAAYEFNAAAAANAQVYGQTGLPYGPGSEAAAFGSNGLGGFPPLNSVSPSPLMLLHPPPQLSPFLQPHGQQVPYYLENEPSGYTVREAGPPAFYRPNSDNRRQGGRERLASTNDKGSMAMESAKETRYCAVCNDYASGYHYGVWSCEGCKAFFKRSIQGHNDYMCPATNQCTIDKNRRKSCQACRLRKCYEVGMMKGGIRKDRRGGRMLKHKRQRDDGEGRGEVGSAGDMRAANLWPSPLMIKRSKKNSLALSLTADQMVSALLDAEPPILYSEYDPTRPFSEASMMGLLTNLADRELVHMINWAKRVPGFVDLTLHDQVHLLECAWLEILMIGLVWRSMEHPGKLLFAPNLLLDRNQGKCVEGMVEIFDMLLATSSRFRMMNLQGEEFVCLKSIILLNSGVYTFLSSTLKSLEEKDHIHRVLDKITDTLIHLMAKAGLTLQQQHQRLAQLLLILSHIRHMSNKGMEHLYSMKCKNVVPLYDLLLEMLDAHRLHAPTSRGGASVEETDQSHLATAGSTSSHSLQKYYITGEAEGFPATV
UniProt P03372, 307-554: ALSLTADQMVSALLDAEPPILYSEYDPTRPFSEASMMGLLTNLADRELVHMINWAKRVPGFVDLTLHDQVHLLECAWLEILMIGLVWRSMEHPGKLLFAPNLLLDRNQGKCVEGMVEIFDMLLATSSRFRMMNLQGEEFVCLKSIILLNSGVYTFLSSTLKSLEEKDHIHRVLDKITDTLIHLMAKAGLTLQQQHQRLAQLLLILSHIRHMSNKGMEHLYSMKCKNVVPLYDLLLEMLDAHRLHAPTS
UniProt Q12809: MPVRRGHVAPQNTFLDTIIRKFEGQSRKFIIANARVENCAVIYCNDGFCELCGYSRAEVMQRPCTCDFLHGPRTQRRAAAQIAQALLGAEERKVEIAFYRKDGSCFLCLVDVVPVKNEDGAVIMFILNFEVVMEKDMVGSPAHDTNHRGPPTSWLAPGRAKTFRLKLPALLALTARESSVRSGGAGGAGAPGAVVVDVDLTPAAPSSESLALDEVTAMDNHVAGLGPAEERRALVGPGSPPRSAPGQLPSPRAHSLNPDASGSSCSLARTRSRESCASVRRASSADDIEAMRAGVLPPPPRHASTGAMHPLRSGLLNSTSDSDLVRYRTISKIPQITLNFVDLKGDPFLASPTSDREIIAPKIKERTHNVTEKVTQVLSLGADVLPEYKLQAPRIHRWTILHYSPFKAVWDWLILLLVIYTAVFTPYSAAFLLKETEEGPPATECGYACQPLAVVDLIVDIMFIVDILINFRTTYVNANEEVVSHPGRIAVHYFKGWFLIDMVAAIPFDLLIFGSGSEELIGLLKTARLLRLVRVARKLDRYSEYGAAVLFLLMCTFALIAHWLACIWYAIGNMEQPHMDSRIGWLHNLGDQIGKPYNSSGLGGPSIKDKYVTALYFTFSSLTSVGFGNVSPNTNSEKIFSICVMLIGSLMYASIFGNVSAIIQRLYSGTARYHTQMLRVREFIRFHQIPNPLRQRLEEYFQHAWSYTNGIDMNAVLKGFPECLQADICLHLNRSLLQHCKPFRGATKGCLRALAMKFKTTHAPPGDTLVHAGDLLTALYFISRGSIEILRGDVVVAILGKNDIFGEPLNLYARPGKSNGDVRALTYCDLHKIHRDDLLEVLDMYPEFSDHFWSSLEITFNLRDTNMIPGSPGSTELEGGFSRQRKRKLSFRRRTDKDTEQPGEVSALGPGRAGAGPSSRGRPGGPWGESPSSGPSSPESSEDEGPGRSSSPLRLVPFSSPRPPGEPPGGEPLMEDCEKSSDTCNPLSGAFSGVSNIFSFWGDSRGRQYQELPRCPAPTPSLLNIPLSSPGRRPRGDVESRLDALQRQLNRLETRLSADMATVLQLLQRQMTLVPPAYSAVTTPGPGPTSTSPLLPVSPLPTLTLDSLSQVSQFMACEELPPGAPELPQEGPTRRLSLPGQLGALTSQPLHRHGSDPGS

Data set [1] concerns the target estrogen receptor (ERα) in CAMA-1 cells (Homo sapiens (Human), UniProt P03372). The data set is described as follows: Western blotting assay, ER down-regulation in CAMA-1. Conditions: CAMA-1, 100 nM compound, 48 h, vs 100 nM fulvestrant. It is filed as cell-based. For orientation: Immunoblotting shows a protein as a band on a membrane.
For data set [2], the target named is T1, Estrogen Receptor (ERα) in MCF-7 cells (Homo sapiens (Human), UniProt P03372). The data set is described as follows: Western blotting assay, ER down-regulation in MCF-7. Format: cell-based. The conditions noted are these: MCF-7, 100 nM compound, 48 h, vs 100 nM fulvestrant.
Data set [3] in a line: physchem. The conditions noted are these: 1-octanol/aqueous buffer, pH 7.4, LogD pH 7.4, pH 7.4.
Data set [4] deals with hERG potassium channel (Homo sapiens (Human), UniProt Q12809).
Data set [5] concerns the target recombinant human Estrogen Receptor alpha ligand binding domain (ER alpha-LBD (GST)) (Homo sapiens (Human), UniProt P03372). The data set is described as follows: ERα binding assay (LanthaScreen TR-FRET competition). (Time-resolved FRET reads energy transfer from a long-lived donor to a nearby acceptor.)
The target in data set [6] is T1, Estrogen Receptor (ERα) in MCF-7 cells. The data set is described as follows: MCF-7 ER down-regulation assay (immuno-fluorescence). It is filed as cell-based.

pIC50: −log10 of the molar value.

Consider `Cc1c(OCCNCCCF)ccc(F)c1[C@@H]1c2[nH]c3ccccc3c2C[C@@H](C)N1C[C@@H](C)C(=O)O` [Example 117, (R)-3-((1R,3R)-1-(6-fluoro-3-(2-((3-fluoropropyl)amino)ethoxy)-2-methylphenyl)-3-methyl-1,3,4,9-tetrahydro-2H-pyrido[3,4-b]indol-2-yl)-2-methylpropanoic acid], for which the “CAMA1 Western % ER deg vs Fv” value in data set [1] turned out to be 92%. The “MCF7 Western % ER deg vs Fv” value in data set [2] was found to be 96%.
The compound `C[C@@H]1Cc2c([nH]c3ccccc23)[C@@H](c2cccc(OCCNCCCF)c2F)N1CC(F)(F)F` [Example 24, 3-fluoro-N-(2-(2-fluoro-3-((1R,3R)-3-methyl-2-(2,2,2-trifluoroethyl)-2,3,4,9-tetrahydro-1H-pyrido[3,4-b]indol-1-yl)phenoxy)ethyl)propan-1-amine] displayed a logD in data set [3] of 3.7. In data set [4], the pIC50 was 5.15.
In data set [4], `Cc1ccc(OCCNCCCF)cc1[C@@H]1c2[nH]c3ccccc3c2C[C@@H](C)N1CC(F)(F)F` [Example 17, 3-fluoro-N-(2-(4-methyl-3-((1R,3R)-3-methyl-2-(2,2,2-trifluoroethyl)-2,3,4,9-tetrahydro-1H-pyrido[3,4-b]indol-1-yl)phenoxy)ethyl)propan-1-amine] had a pIC50 of 5.39.
Turning to `Cc1c(OCCNCCCF)ccc(F)c1[C@@H]1c2[nH]c3ccccc3c2C[C@@H](C)N1CC(F)(F)F` [Example 33, 3-fluoro-N-(2-(4-fluoro-2-methyl-3-((1R,3R)-3-methyl-2-(2,2,2-trifluoroethyl)-2,3,4,9-tetrahydro-1H-pyrido[3,4-b]indol-1-yl)phenoxy)ethyl)propan-1-amine], the logD in data set [3] came to 4.5. The same compound showed a pIC50 in data set [4] of 5.28.
The matching figures for `Cc1cc(OCCNCCCF)cc([C@@H]2c3[nH]c4ccccc4c3C[C@@H](C)N2CC(F)(F)F)c1` [Example 18, 3-fluoro-N-(2-(3-methyl-5-((1R,3R)-3-methyl-2-(2,2,2-trifluoroethyl)-2,3,4,9-tetrahydro-1H-pyrido[3,4-b]indol-1-yl)phenoxy)ethyl)propan-1-amine]: 4.5 and 5.35.
The compound `C[C@@H]1Cc2c([nH]c3ccccc23)[C@@H](c2cccc(OCCNCCCF)c2)N1CC(F)(F)F` [Example 16, 3-fluoro-N-(2-(3-((1R,3R)-3-methyl-2-(2,2,2-trifluoroethyl)-2,3,4,9-tetrahydro-1H-pyrido[3,4-b]indol-1-yl)phenoxy)ethyl)propan-1-amine] came in with a log distribution coefficient (logD) in data set [3] of 4.1.
For `C[C@@H]1Cc2c([nH]c3ccccc23)[C@@H](c2cc(F)cc(OCCNCCCF)c2)N1CC(F)(F)F` [Example 73, 3-fluoro-N-(2-(3-fluoro-5-((1R,3R)-3-methyl-2-(2,2,2-trifluoroethyl)-2,3,4,9-tetrahydro-1H-pyrido[3,4-b]indol-1-yl)phenoxy)ethyl)propan-1-amine], in data set [3], the logD was determined as 4.4. Moreover, the pIC50 in data set [4] is 5.17.
`Cc1c(OCCNCCC(F)F)ccc(F)c1[C@@H]1c2[nH]c3ccc(F)cc3c2C[C@@H](C)N1C[C@@H](C)C(=O)O` [Example 162, (R)-3-((1R,3R)-1-(3-(2-((3,3-difluoropropyl)amino)ethoxy)-6-fluoro-2-methylphenyl)-6-fluoro-3-methyl-1,3,4,9-tetrahydro-2H-pyrido[3,4-b]indol-2-yl)-2-methylpropanoic acid]: in data set [5], the pIC50 was 8.85.
On to `C[C@@H]1Cc2c([nH]c3ccccc23)[C@@H](c2ccc(F)c(OCCNCCCF)c2)N1CC(F)(F)F` [Example 74, 3-fluoro-N-(2-(2-fluoro-5-((1R,3R)-3-methyl-2-(2,2,2-trifluoroethyl)-2,3,4,9-tetrahydro-1H-pyrido[3,4-b]indol-1-yl)phenoxy)ethyl)propan-1-amine], for which the logD in data set [3] was 4.1. In addition, in data set [4], the pIC50 was 4.92.
Consider `C[C@@H]1Cc2c([nH]c3ccccc23)[C@@H](c2cccc(NCCNCCCF)c2)N1CC1(F)COC1` [Example 2, N-1-(3-((1R,3R)-2-((3-fluorooxetan-3-yl)methyl)-3-methyl-2,3,4,9-tetrahydro-1H-pyrido[3,4-b]indol-1-yl)phenyl)-N-2-(3-fluoropropyl)ethane-1,2-diamine], for which the logD in data set [3] turned out to be 3.1.
Same read-out and setting: next, `COc1ccc(OCCNCCCF)cc1[C@@H]1c2[nH]c3ccccc3c2C[C@@H](C)N1CC1(F)COC1` [Example 4, 3-Fluoro-N-(2-(3-((1R,3R)-2-((3-fluorooxetan-3-yl)methyl)-3-methyl-2,3,4,9-tetrahydro-1H-pyrido[3,4-b]indol-1-yl)-4-methoxyphenoxy)ethyl)propan-1-amine]: 2.5; `Cc1ccc([C@@H]2c3[nH]c4ccccc4c3C[C@@H](C)N2CC(F)(F)F)cc1OCCNCCCF` [Example 19, 3-fluoro-N-(2-(2-methyl-5-((1R,3R)-3-methyl-2-(2,2,2-trifluoroethyl)-2,3,4,9-tetrahydro-1H-pyrido[3,4-b]indol-1-yl)phenoxy)ethyl)propan-1-amine]: 4.6.
For `Cc1c(OCCNCCCF)cccc1[C@@H]1c2[nH]c3ccccc3c2C[C@@H](C)N1CC(F)(F)F` [Example 20, 3-fluoro-N-(2-(2-methyl-3-((1R,3R)-3-methyl-2-(2,2,2-trifluoroethyl)-2,3,4,9-tetrahydro-1H-pyrido[3,4-b]indol-1-yl)phenoxy)ethyl)propan-1-amine], in data set [3], the logD is 4.6. Besides, the pIC50 was 9.00 in data set [5], 5.42 in data set [4] and 9.54 in data set [6].
With `Cc1ccc(OCCNCCCF)c(F)c1[C@@H]1c2[nH]c3ccccc3c2C[C@@H](C)N1CC(F)(F)F` [Example 80, 3-fluoro-N-(2-(2-fluoro-4-methyl-3-((1R,3R)-3-methyl-2-(2,2,2-trifluoroethyl)-2,3,4,9-tetrahydro-1H-pyrido[3,4-b]indol-1-yl)phenoxy)ethyl)propan-1-amine], in data set [3], the pH-dependent lipophilicity (logD) was 4.5.
As to `Cc1c(OCCNCCCF)ccc(F)c1[C@@H]1c2[nH]c3ccccc3c2C[C@@H](C)N1CC(F)(F)CO` [Example 45, 2,2-difluoro-3-((1R,3R)-1-(6-fluoro-3-(2-((3-fluoropropyl)amino)ethoxy)-2-methylphenyl)-3-methyl-1,3,4,9-tetrahydro-2H-pyrido[3,4-b]indol-2-yl)propan-1-ol], the logD in data set [3] is 3.3. Besides, the “CAMA1 Western % ER deg vs Fv” value in data set [1] is recorded as 93%. For the same compound, the “MCF7 Western % ER deg vs Fv” value in data set [2] was 89%. In data set [4], this compound had a pIC50 of 5.82.
`COc1ccc(OCCNCCCF)cc1[C@@H]1c2[nH]c3ccccc3c2C[C@@H](C)N1CC(F)F` [Example 6, N-(2-(3-((1R,3R)-2-(2,2-difluoroethyl)-3-methyl-2,3,4,9-tetrahydro-1H-pyrido[3,4-b]indol-1-yl)-4-methoxyphenoxy)ethyl)-3-fluoropropan-1-amine] returned a log distribution coefficient (logD) in data set [3] of 3.2. The same compound gave a pIC50 in data set [4] of 5.27.
The matching figures for `COc1ccc(OCCNCCCF)cc1[C@@H]1c2[nH]c3ccccc3c2C[C@@H](C)N1CC(F)(F)CO` [Example 8, 2,2-Difluoro-3-((1R,3R)-1-(5-(2-((3-fluoropropyl)amino)ethoxy)-2-methoxyphenyl)-3-methyl-1,3,4,9-tetrahydro-2H-pyrido[3,4-b]indol-2-yl)propan-1-ol]: 2.6 and 5.34.

By logD is commonly meant the decadic logarithm of the distribution of all forms, ionised or not, between an organic phase and buffer at a given pH. High values mean a more lipophilic compound, low ones a more hydrophilic compound. As a reminder, the pIC50 is the negative decadic logarithm of the IC50, by convention in mol/L.
